Earlier results, collected in patent publication US11390616B2 (BRISTOL-MYERS SQUIBB COMPANY, priority 2015, dated 2022).

Details: estimated; Japp et al. 2010; cited from earlier work

Apelin
half life in circulation: less than 5 minutes
